The numbers were not newly measured in PMC8342319, “Predicting blood-to-plasma concentration ratios of drugs from chemical structures and volumes of distribution in humans” (Molecular Diversity, 2021), which cites them from elsewhere.

Like-named read-outs stand apart in the source and are kept apart here. This is a selection: effects in other tests are not listed, and their absence says nothing.

For series [1] the following is noted: median if multiple values were reported, ref numbers in Table S1; cited from earlier work.
A further series concerns plasma protein. As to conditions: median if multiple values were reported, cited from earlier work; for fp_Human: human plasma free fraction, ref numbers in Table S1.
For series [2] the following is noted: human, intravenous, cited from earlier work.

In the case of `CCC(=O)N(c1ccccc1)C1CCN(CCc2ccccc2)CC1`, the Rb Human (blood-to-plasma concentration ratio) in series [1] was 0.99. In the series with plasma protein, the fp_Human is 0.160.
Consider `CCC(=O)N(c1ccccc1)C1(COC)CCN(CCc2cccs2)CC1`, for which, in series [2] (median if multiple values reported, Reference of Table S1), the “in vivo Vd_(L/kg)_Human” value was 9.400 L/kg.
With `CCC(=O)N(c1ccccc1)C1(COC)CCN(CCn2nnn(CC)c2=O)CC1`, in series [1], the Rb Human (blood-to-plasma concentration ratio) was 0.63. The “in vivo Vd_(L/kg)_Human” value in series [2] (median if multiple values were reported, ref numbers in Table S1) is 0.625 L/kg. Moreover, the fp_Human with plasma protein is recorded as 0.080. In the series with plasma protein (human, collected value, ref: Table S1), the fp Human (free fraction in plasma) is 0.08.
